Experiment: xn = mol fraction of the nth substance listed
Details: 100 kPa, x1 = 0.0001802

CCC[N+](CCC)(CCC)CCC.[Br-] + CCCCCCCCCCCCOS(=O)(=O)[O-].[Na+] + O
viscosity [mPa·s]
Details	x2 = 1.81e-06	x2 = 3.61e-06	x2 = 5.42e-06	x2 = 7.23e-06	x2 = 9.03e-06	x2 = 1.084e-05	x2 = 1.265e-05	x2 = 1.445e-05	x2 = 1.626e-05	x2 = 1.806e-05
293.15 K	1.009	1.01	1.011	1.011	1.012	1.012	1.013	1.013	1.013	1.014
298.15 K	0.903	0.906	0.907	0.907	0.908	0.908	0.908	0.908	0.909	0.91
303.15 K	0.797	0.798	0.799	0.8	0.8	0.801	0.801	0.801	0.801	0.802
308.15 K	0.718	0.719	0.72	0.721	0.722	0.722	0.722	0.722	0.723	0.723
313.15 K	0.653	0.654	0.656	0.656	0.657	0.657	0.657	0.657	0.658	0.658
318.15 K	0.598	0.6	0.601	0.601	0.602	0.602	0.602	0.602	0.602	0.602

— the CheMixHub ionic liquid set
